This assay deals with BACE1 (Homo sapiens (Human), UniProt P56817). Nature of the assay: BACE1 Cell-Free Assay (fluorescence polarization). It counts as biochemical. The text has this: Beta-secretase (BACE) is one of the enzymes involved in the generation of the amyloid beta peptide found in the amyloid plaques of Alzheimer's Disease patients. This assay measures the inhibition of the beta-secretase enzyme as it cleaves a non-native peptide.
A synthetic APP substrate that can be cleaved by beta-secretase having N-terminal biotin and made fluorescent by the covalent attachment of Oregon Green at the Cys residue is used to assay beta-secretase activity in the presence or absence of the inhibitory compounds. The substrate is Biotin-[…]^EVEFR-C[Oregon Green]KK-OH. The BACE1 enzyme is affinity purified material from conditioned media of CHO-K1 cells that have been transfected with a soluble BACE construct (BACE1deltaTM96His). Compounds are incubated in a ½ log dose response curve from a top concentration of 100 μM with BACE1 enzyme and the biotinylated fluorescent peptide in 384-well black plates (Thermo Scientific #4318). BACE1 is at a final concentration of 0.1 nM with a final concentration of peptide substrate of 150 nM in a reaction volume of 30 μL assay buffer [100 mM sodium acetate, pH 4.5 (brought to pH with acetic acid), and 0.001% Tween-20]. Plates are covered and incubated for 3 hours at 37° C. The reaction is stopped with the addition of 30 μL of 1.5 μM Streptavidin (Pierce, #21125). After a 10 minute incubation at room temperature, plates are read on a PerkinElmer EnVision for fluorescence polarization (Ex485 nm/Em530 nm). The activity of the beta-secretase enzyme is detected by changes in the fluorescence polarization that occur when the substrate is cleaved by the enzyme.

Chains of the proteins cited; added tags and fusions are not shown. Residues count along the entry.
UniProt P56817, 46-457: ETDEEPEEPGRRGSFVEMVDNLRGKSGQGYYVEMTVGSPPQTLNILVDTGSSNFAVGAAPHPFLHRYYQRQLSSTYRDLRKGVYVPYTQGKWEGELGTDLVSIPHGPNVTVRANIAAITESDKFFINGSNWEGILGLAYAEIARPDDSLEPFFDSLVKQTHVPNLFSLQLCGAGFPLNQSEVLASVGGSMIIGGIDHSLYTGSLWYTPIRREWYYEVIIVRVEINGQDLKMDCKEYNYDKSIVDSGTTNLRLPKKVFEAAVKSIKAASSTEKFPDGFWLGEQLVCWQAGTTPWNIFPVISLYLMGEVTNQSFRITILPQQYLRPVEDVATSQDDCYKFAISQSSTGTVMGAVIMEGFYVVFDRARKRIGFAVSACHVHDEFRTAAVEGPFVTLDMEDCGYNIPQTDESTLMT

Setting [1] is: geometric mean of 2-4 determinations unless otherwise indicated (b: ≧5; c: single determination), read-out: BACE1 Cell-free Assay IC50.
Setting [2] is: Table 4, read-out: BACE1 Cell Free IC50.

Consider 7 compounds from US9315520B2, “2-amino-6-methyl-4,4a,5,6-tetrahydropyrano[3,4-d][1,3]thiazin-8a(8H)-yl-1,3-thiazol-4-yl amides” (Pfizer Inc., priority 2014, dated 2016).

The structures appear in SMILES notation. Counter-ions that a name gives are not always drawn. Like-named read-outs stand apart in the source and are kept apart here. Where only a bound is given, the exact number is not on record here.

With `C[C@H]1C[C@H]2CSC(N)=N[C@@]2(c2nc(NC(=O)c3ccn(C4CC4)n3)cs2)CO1` [Example 84, N-{2-[(4aR,6S,8aR)-2-amino-6-methyl-4,4a,5,6-tetrahydropyrano[3,4-d][1,3]thiazin-8a(8H)-yl]-1,3-thiazol-4-yl}-1-cyclopropyl-1H-pyrazole-3-carboxamide, formate salt], the IC50 under setting [1] came out at 1660 nM. For the compound `C[C@H]1C[C@H]2CSC(N)=N[C@@]2(c2nc(NC(=O)c3ccc(Cl)cn3)cs2)CO1` [Example 7, N-{2-[(4aR,6S,8aR)-2-amino-6-methyl-4,4a,5,6-tetrahydropyrano[3,4-d][1,3]thiazin-8a(8H)-yl]-1,3-thiazol-4-yl}-5-chloropyridine-2-carboxamide], the IC50 reads like this: under setting [2], 33 nM; under setting [1], 33 nM.

For `C[C@H]1C[C@H]2CSC(N)=N[C@@]2(c2nc(NC(=O)c3nn(C(F)F)cc3Cl)cs2)CO1` [Example 6, N-{2-[(4aR,6S,8aR)-2-amino-6-methyl-4,4a,5,6-tetrahydropyrano[3,4-d][1,3]thiazin-8a(8H)-yl]-1,3-thiazol-4-yl}-4-chloro-1-(difluoromethyl)-1H-pyrazole-3-carboxamide], the IC50 under setting [1] amounted to 4 nM.

For `C[C@H]1C[C@H]2CSC(N)=N[C@@]2(c2nc(NC(=O)c3ccc(OC(F)F)cn3)cs2)CO1` [Comparator 1], the IC50 under setting [2] was more than 100000 nM. In the case of `C[C@H]1C[C@H]2CSC(N)=N[C@@]2(c2nc(NC(=O)c3cnn(C4CC4)c3)cs2)CO1` [Example 80, N-{2-[(4aR,6S,8aR)-2-amino-6-methyl-4,4a,5,6-tetrahydropyrano[3,4-d][1,3]thiazin-8a(8H)-yl]-1,3-thiazol-4-yl}-1-cyclopropyl-1H-pyrazole-4-carboxamide], the IC50 under setting [1] amounted to 8070 nM. As to `C[C@H]1C[C@H]2CSC(N)=N[C@@]2(c2nc(NC(=O)c3ccc(OC(F)F)cn3)cs2)CO1` [Example 1, N-{2-[(4aR,6S,8aR)-2-amino-6-methyl-4,4a,5,6-tetrahydropyrano[3,4-d][1,3]thiazin-8a(8H)-yl]-1,3-thiazol-4-yl}-5-(difluoromethoxy)pyridine-2-carboxamide], the IC50 reads like this: under setting [2], 41 nM; under setting [1], 41 nM. As for `C[C@H]1C[C@H]2CSC(N)=N[C@@]2(c2nc(NC(=O)c3coc(C(F)F)n3)cs2)CO1` [Example 8, N-{2-[(4aR,6S,8aR)-2-amino-6-methyl-4,4a,5,6-tetrahydropyrano[3,4-d][1,3]thiazin-8a(8H)-yl]-1,3-thiazol-4-yl}-2-(difluoromethyl)-1,3-oxazole-4-carboxamide], the IC50 under setting [1] was 11 nM.

By IC50 is commonly meant the concentration at which inhibition is half-maximal.
